The record followed here is PubChem BioAssay AID1159606 (Sanford-Burnham Center for Chemical Genomics, 2016).

The list shows a part of the results, in another mix than the full data. Active and inactive are the calls of the source. Rule as the data show it: active = inhibition above about 50%; inactive = the rest.

The experiment in a line: inhibitors of TWEAK-Fn14 signaling, primary screen, luciferase reporter cells, uHTS (AID 1159606). To be noted: TWEAK-stimulated Fn14 reporter cells, luciferase luminescence, 8 h; at 10 µM; hits give high values.
As for `CCC(=O)N(c1ccccc1)C1(COC)CCN(CCn2nnn(CC)c2=O)CC1`, the inhibition was inactive: 10.9%. As for `CCC(=O)N(c1ccccc1)C1(COC)CCN(CCc2cccs2)CC1`, the figure is inactive: 2.77%.
